Test results as given in patent US9586999B2, “Methods and compositions related to improving properties of pharmacological agents targeting nervous system” (University of Utah Research Foundation, priority 2006, dated 2017).

Assay: Metabolic stability in diluted rat serum at 37° C., HPLC
Assay type: in vitro ADME
Description: Analogs 5055 (SEQ ID NO: 3) or 1205-2 (SEQ ID NO: 50) or unmodified analog Gal(1-16) were incubated in diluted rat serum at 37° C. Remaining amounts of the peptides were determined by HPLC.

Substance | metabolic stability versus unmodified Gal(1-16)
(Sar)WTLNSAGYLLGPDKDK(Lys-P)DK [NAX 1205-2] | improve metabolic stability
Sar-Trp-Thr-Leu-Asn-Ser-Ala-Gly-Tyr-Leu-Leu-Gly-Pro-Lys-Lys-(Lys-palm)-Lys-NH2 [NAX 5055] | improve metabolic stability
